Target: Insulin Receptor (IR) (UniProt P06213)
Assay: BIAcore, IR 450 nM preincubated with MBP 13 µM, over immobilised insulin; residual RU

Result (RUs): 209 RU
Substance: MBP (from UniProt P0AEX9 27-392) (other; other documents disagree on this pair)
